Values of other authors as cited in article PMC6152717, “Novel Tacrine-Scutellarin Hybrids as Multipotent Anti-Alzheimer’s Agents: Design, Synthesis and Biological Evaluation” (Molecules : A Journal of Synthetic Chemistry and Natural …, 2017).

Test system: AChE
Conditions: selectivity index for AChE over BChE; cited from earlier work

For `COc1cc2c(cc1OC)C(=O)C(CC1CCN(Cc3ccccc3)CC1)C2` (stereo not shown) [donepezil], the SI value is given as 1100.
